Assay results from US11066405B2, “Bicyclic compounds and their use in the treatment of cancer” (Tempest Therapeutics, Inc., priority 2017, dated 2021).

Amino acid sequences for entries named in this document (tags omitted).
UniProt P35408, whole entry: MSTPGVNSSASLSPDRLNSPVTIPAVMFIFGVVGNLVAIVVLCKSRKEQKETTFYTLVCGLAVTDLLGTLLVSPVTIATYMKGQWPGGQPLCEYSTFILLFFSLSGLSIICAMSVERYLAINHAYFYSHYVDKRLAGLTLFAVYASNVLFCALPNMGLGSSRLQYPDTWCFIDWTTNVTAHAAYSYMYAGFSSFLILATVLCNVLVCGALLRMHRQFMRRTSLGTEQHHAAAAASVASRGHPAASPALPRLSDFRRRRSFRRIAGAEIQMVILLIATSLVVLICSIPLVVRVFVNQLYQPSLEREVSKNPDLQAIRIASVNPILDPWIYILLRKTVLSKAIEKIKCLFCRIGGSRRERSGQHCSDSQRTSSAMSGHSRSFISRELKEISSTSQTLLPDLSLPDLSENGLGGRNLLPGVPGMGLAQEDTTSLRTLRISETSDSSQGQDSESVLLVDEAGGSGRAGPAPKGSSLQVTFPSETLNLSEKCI

These compounds were tested against EP4 (Homo sapiens, UniProt P35408) (assay: EP4 Ca2+-flux assay (functional calcium flux assay, stably transfected HEK293 cells)). Details: read-out: EP4 Ca2+-flux assay IC50; HEK293 cells stably transfected with EP4; ligand PGE2 10 nM; luminescence readout.
Protocol: The compounds in the present disclosure were tested in a functional calcium flux assay using stably transfected HEK293 cells. Cells transfected with EP1, EP2, EP3 and EP4 were purchased from Eurofins Discovery Services (St. Charles, Mo.). Each receptor subtype has an additional promiscuous G protein added in order to couple to the calcium signaling pathway. The parental cell line used also expresses a novel variant of clytin, a calcium-activated photo-protein, to enable sensitive luminescent detection.
Cells were plated at 50,000 cells per well in black, clear bottom 96-well plates. The plated cells were allowed to sit at room temperature for 30 min prior to transferring to a humidified, 37° C., 5% CO2 incubator for 18-24 h. Assay buffer (HBSS with 20 mM HEPES) and loading buffer (assay buffer plus 10 μM Coelenterazine) were prepared on the day of the assay. Assays were performed by aspirating media from the assay plate and washing once with assay buffer, then replacing with loading buffer and allowing the cells to incubate for 1.5 h at room temperature. Compounds were prepared in assay buffer at a 3× final concentration in non-binding plates. Compounds were added to the cell plates and incubated for 30 min at room temperature. The prostanoid receptor ligand PGE2 was prepared at a 4× dilution ratio for a final concentration of 10 nM. Plates were run on a Flexstation™ using a 100 ms integration luminescence protocol for a total of 60 sec with ligand addition at 15 sec. Data were obtained from relative light units as measured by area under the curve.

SMILES	IC50 [nM]
O=C(NC1CC2(C1)CC(C(=O)O)C2)c1cccc2ccn(Cc3ccc(C(F)(F)F)cc3)c12 (single isomer, unassigned) [8, first eluting]	520
O=C(NC1CC2(C1)CC(C(=O)O)C2)c1cccc2ccn(Cc3ccc(C(F)(F)F)cc3)c12 (single isomer, unassigned) [8, second eluting]	0.19
O=C(NC1CC2(C1)CC(C(=O)O)C2)c1cncc2ccn(Cc3ccc(C(F)(F)F)cc3)c12 (single isomer, unassigned) [10, first eluting]	20
O=C(NC1CC2(C1)CC(C(=O)O)C2)c1cncc2ccn(Cc3ccc(C(F)(F)F)cc3)c12 (single isomer, unassigned) [10, second eluting]	0.13

The next lines start with the values.

IC50 [nM]	SMILES
24	O=C(NC1CC2(C1)CC(C(=O)O)C2)c1ccc(F)c2ccn(Cc3ccc(C(F)(F)F)cc3)c12 (single isomer, unassigned) [20, first eluting]
0.31	O=C(NC1CC2(C1)CC(C(=O)O)C2)c1ccc(F)c2ccn(Cc3ccc(C(F)(F)F)cc3)c12 (single isomer, unassigned) [20, second eluting]
